From patent publication US20210301315A1, “METHODS FOR TREATING POLYMICROBIAL INFECTIONS” (priority 2017, published 2021)
“Also recorded” adds a separate entry of the source.

System: Coagulase-negative Staphylococcus (CoNS) and S. agalactiae
Conditions: CoNS and S. agalactiae together v. expected from each species alone (HSAP/UP)

| Structure (SMILES) | change in antibiotic resistance of the pair of organisms |
| --- | --- |
| O=C(O)c1cn(C2CC2)c2cc(N3CCNCC3)c(F)cc2c1=O [Ciprofloxacin, ciprofloxacin] | decrease in resistance; also recorded: decreased odds of resistance |
| CO/N=C(\C(=O)N[C@@H]1C(=O)N2C(C(=O)O)=C(CSc3nc(=O)c(=O)[nH]n3C)CS[C@H]12)c1csc(N)n1 [Ceftriaxone, ceftriaxone] | decrease in resistance; also recorded: decreased odds of resistance |
